Like-named read-outs stand apart in the source and are kept apart here.
Columns and labels:
JNK3 = JNK3 (Homo sapiens, UniProt P53779); assay: biochemical
38 different kinases = conditions: 10 μM

Sequences of proteins named here, by UniProt entry; tags and fusion partners are left off. A change or cut given only in a name is not applied to a line headed by its entry.
UniProt P53779: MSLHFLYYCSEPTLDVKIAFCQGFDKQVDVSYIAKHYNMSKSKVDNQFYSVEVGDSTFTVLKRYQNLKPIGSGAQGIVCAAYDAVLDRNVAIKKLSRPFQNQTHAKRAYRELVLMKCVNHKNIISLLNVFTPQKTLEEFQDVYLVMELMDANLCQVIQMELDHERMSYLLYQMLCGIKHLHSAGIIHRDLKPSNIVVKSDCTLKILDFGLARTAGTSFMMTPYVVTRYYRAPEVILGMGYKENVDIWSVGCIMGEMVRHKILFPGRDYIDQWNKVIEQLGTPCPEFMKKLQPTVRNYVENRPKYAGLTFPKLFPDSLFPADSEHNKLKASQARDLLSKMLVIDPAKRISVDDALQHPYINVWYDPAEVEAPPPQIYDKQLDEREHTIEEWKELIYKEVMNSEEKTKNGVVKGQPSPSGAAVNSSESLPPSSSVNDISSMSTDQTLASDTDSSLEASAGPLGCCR

SMILES | IC50 (JNK3) [µM] | IC50 (JNK3; JNK3 enzyme activity, Table 2, read-out: IC50) [µM] | selectivity profile in kinase panel (38 different kinases)
NC(=O)N1Cc2nc(-c3ccc(Cl)c(Cl)c3)n(-c3ccnc(N[C@H]4CCCN(C(=O)C5CCC5)C4)n3)c2C1 [Compound 16e, (S)-1-(2-((1-(cyclobutanecarbonyl)piperidin-3-yl)amino)pyrimidin-4-yl)-2-(3,4-dichlorophenyl)-4,6-dihydropyrrolo[3,4-d]imidazole-5(1H)-carboxamide] | < 0.03 |  | 
NC(=O)N1Cc2nc(-c3ccc4c(c3)OCO4)n(-c3ccnc(N[C@H]4CCN(C(=O)C5CC5)C4)n3)c2C1 [Compound 16l, (S)-2-(benzo[d][1,3]dioxol-5-yl)-1-(2-((1-(cyclopropanecarbonyl)pyrrolidin-3-yl)amino)pyrimidin-4-yl)-4,6-dihydropyrrolo[3,4-d]imidazole-5(1H)-carboxamide] | 0.1 to 10 |  | 
NC(=O)N1Cc2nc(-c3ccc4c(c3)CCO4)n(-c3ccnc(N[C@@H]4CCN(C(=O)C5CC5)C4)n3)c2C1 [Compound 16o, (R)-1-(2-((1-(cyclopropanecarbonyl)pyrrolidin-3-yl)amino)pyrimidin-4-yl)-2-(2,3-dihydrobenzofuran-5-yl)-4,6-dihydropyrrolo[3,4-d]imidazole-5(1H)-carboxamide] | < 0.03 |  | 
NC(=O)N1Cc2nc(-c3ccc4c(c3)OCO4)n(-c3ccnc(N[C@H]4CCCN(C(=O)C5CC5)C4)n3)c2C1 [Compound 16j, (S)-2-(benzo[d][1,3]dioxol-5-yl)-1-(2-((1-(cyclopropanecarbonyl)piperidin-3-yl)amino)pyrimidin-4-yl)-4,6-dihydropyrrolo[3,4-d]imidazole-5(1H)-carboxamide] |  | 0.03 to 0.1 | 
NC(=O)N1Cc2nc(-c3ccc4c(c3)CCO4)n(-c3ccnc(N[C@H]4CCN(C(=O)C5CC5)C4)n3)c2C1 [Compound 16p, (S)-1-(2-((1-(cyclopropanecarbonyl)pyrrolidin-3-yl)amino)pyrimidin-4-yl)-2-(2,3-dihydrobenzofuran-5-yl)-4,6-dihydropyrrolo[3,4-d]imidazole-5(1H)-carboxamide] | 0.1 to 10 |  | 
NC(=O)N1Cc2nc(-c3ccc4ccccc4c3)n(-c3ccnc(N[C@H]4CCCN(C(=O)C5CC5)C4)n3)c2C1 [Compound 16g, (S)-1-(2-((1-(cyclopropanecarbonyl)piperidin-3-yl)amino)pyrimidin-4-yl)-2-(naphthalen-2-yl)-4,6-dihydropyrrolo[3,4-d]imidazole-5(1H)-carboxamide] | < 0.03 |  | 
NC(=O)N1Cc2nc(-c3ccc4ccccc4c3)n(-c3ccnc(N[C@@H]4CCN(C(=O)C5CC5)C4)n3)c2C1 [Compound 16h, (R)-1-(2-((1-(cyclopropanecarbonyl)pyrrolidin-3-yl)amino)pyrimidin-4-yl)-2-(naphthalen-2-yl)-4,6-dihydropyrrolo[3,4-d]imidazole-5(1H)-carboxamide] | < 0.03 |  | 
NC(=O)N1Cc2nc(-c3ccc(Cl)c(Cl)c3)n(-c3ccnc(N[C@H]4CCN(C(=O)C5CC5)C4)n3)c2C1 [Compound 16d, (S)-1-(2-((1-(cyclopropanecarbonyl)pyrrolidin-3-yl)amino)pyrimidin-4-yl)-2-(3,4-dichlorophenyl)-4,6-dihydropyrrolo[3,4-d]imidazole-5(1H)-carboxamide] | 0.03 to 0.1 |  | 
NC(=O)N1Cc2nc(-c3ccc(Cl)c(Cl)c3)n(-c3ccnc(N[C@H]4CCCN(C(=O)C5CCCC5)C4)n3)c2C1 [Compound 16f, (S)-1-(2-((1-(cyclopentanecarbonyl)piperidin-3-yl)amin)pyrimidin-4-yl)-2-(3,4-dichlorophenyl)-4,6-dihydropyrrolo[3,4-d]imidazole-5(1H)-carboxamide] | < 0.03 |  | 
NC(=O)N1Cc2nc(-c3ccc4c(c3)OCO4)n(-c3ccnc(N[C@@H]4CCN(C(=O)C5CC5)C4)n3)c2C1 [Compound 16k, (R)-2-(benzo[d][1,3]dioxol-5-yl)-1-(2-((1-(cyclopropanecarbonyl)pyrrolidin-3-yl)amino)pyrimidin-4-yl)-4,6-dihydropyrrolo[3,4-d]imidazole-5(1H)-carboxamide] | 0.03 to 0.1 |  | 
NC(=O)N1Cc2nc(-c3ccc(Cl)c(Cl)c3)n(-c3ccnc(N[C@@H]4CCN(C(=O)C5CC5)C4)n3)c2C1 [Compound 16c, (R)-1-(2-((1-(cyclopropanecarbonyl)pyrrolidin-3-yl)amino)pyrimidin-4-yl)-2-(3,4-dichlorophenyl)-4,6-dihydropyrrolo[3,4-d]imidazole-5(1H)-carboxamide] | < 0.03 |  | did not show a selective profile result of JNK3

From patent publication US12692268B2 (priority 2020, dated 2026)
